Values of other authors in patent US20230355571A1, “METHOD FOR TREATING VIRAL AND BACTERIAL INFECTION THROUGH INHALATION THERAPY” (priority 2020, published 2023).

Sequences of proteins named here, by UniProt entry; tags and fusion partners are left off.
UniProt P34972, whole entry: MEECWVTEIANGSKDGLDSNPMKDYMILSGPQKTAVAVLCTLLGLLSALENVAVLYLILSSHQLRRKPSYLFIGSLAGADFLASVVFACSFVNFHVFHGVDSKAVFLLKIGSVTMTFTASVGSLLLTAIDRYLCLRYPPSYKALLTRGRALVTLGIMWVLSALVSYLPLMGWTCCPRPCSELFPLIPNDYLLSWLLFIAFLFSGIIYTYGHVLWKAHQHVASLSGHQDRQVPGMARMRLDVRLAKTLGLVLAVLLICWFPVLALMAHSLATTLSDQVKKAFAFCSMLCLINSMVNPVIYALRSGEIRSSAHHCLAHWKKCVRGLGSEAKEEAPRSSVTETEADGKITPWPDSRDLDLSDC

Target: CB2 receptor (Homo sapiens, UniProt P34972)
Conditions: read-out: Ki, CB2 receptor binding; cited from earlier work

In the case of `C=C(C)[C@@H]1CCC(C)=C[C@H]1c1c(O)cc(CCCCC)cc1O` [CBD, Cannabidiol], the Ki is listed as 2680 nM.
